Test results taken from patent US20080125453A1, “PHENYLEPHRINE TANNATE, PYRILAMINE TANNATE AND DEXTROMETHORPHAN TANNATE SALTS IN PHARMACEUTICAL COMPOSITIONS” (TIBER LABORATORIES, LLC, priority 2001, published 2008).

Format: physicochemical
Details: purified water; stated as 'will result', not carried out
Procedure: The salt of the active ingredient, corresponding to an amount of free base present in a final batch size of 1 kg was dissolved in 100 ml of purified water. 120 ml of purified water was placed in a 600 ml beaker and stirred. While stirring, 3 g of MAS was added in small portions to obtain a dispersion. The amount of MAS used is a part of the total amount of MAS to be used in the formulation. Once the MAS was dispersed, tannic acid was added to the mixture and stirred to form a uniform dispersion. Three different batches of the MAS/tannic acid dispersion in purified water were prepared for each active. In the three batches, the amount of tannic acid used in the batch may vary from an amount equal to that of the free base, to two time to three times that of the free base present in the initial salt solution.
The salt solution was then added in small portions, under light stirring, to the MAS/Tannic acid dispersion. After all of the salt solution was added, the volume was made up to 250 ml with purified water and stirring was continued for a period of 10 minutes.
The MAS was used in this step to serve as an adherent or a solid support for the tannic acid molecules to facilitate the conversion process.

**Q.** For `COc1ccc2c(c1)[C@]13CCCC[C@@H]1[C@H](C2)N(C)CC3` [dextromethorphan, d-3-methoxy-N-methylmorphinan], which “precipitate formation of the tannate salt (expected)” value is on record?
**A.** The value was “copious amounts of precipitate”.
